Columns and labels:
CDK4 = CDK4 (Homo sapiens, UniProt P11802); experiment: CDK inhibition assay, CDK4; type: biochemical; conditions: Table 1
CDK6 = conditions: in words; cited from earlier work

The chains behind the UniProt entries cited, without tags or fusion partners.
UniProt P11802, whole entry, species assumed: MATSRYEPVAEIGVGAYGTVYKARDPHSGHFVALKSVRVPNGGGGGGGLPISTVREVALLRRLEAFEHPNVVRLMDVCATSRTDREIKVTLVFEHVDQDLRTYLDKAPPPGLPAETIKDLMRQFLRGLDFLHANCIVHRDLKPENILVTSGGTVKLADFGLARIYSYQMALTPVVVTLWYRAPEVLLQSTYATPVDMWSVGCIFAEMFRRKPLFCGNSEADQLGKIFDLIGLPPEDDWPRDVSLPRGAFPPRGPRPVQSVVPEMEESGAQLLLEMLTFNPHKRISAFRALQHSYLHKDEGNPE

Compound: Cn1cnc2c(NCc3ccccc3)nc(NCCO)nc21 [Olomoucine, 2-(2-hydroxyethylamino)-6-benzylamino-9-methyl-purine]
- IC50 (CDK4): > 1000 µM

Compound: CC[C@H](CO)Nc1nc(NCc2ccccc2)c2ncn(C(C)C)c2n1 [roscovitine, 6-(benzylamino)-2(R)-[{1-(hydroxy-methyl)propyl}amino]-9-isopropylpurine]
- activity against CDK6 (CDK6): neither has been found to be active

Reference: patent US6303618A, “Cyclin dependent kinase inhibiting purine derivatives” (priority 1997, dated 2001)
